Literature values as cited in US20120058541A1, “ENGINEERING RESISTANCE TO ALIPHATIC ALCOHOLS” (BUTAMAX(TM) ADVANCED BIOFUELS LLC, priority 2009, published 2012).

Tested on: producing organisms
Conditions: generally reported; fermentation of producing organisms; cited from earlier work

butanol
butanol concentration resulting in profound cellular degradation: 12 to 13 g/L
